# Apparent affinities of Ab-91 variants for a coronavirus HR2 peptide

Target peptide (SARS-CoV-2 spike, HR2 region): PDVDLGDISGINAS

Parent scFv Ab-91: VL joined to VH by a 15-residue (Gly4Ser)3 linker. Changes lie in the heavy chain CDRs alone.
VL: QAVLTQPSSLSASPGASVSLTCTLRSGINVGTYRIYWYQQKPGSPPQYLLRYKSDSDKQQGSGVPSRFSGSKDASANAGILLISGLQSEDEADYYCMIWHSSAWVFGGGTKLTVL
VH: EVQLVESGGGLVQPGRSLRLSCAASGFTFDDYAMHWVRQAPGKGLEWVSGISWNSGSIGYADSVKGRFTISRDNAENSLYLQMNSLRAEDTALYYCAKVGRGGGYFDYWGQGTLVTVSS

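The starting antibody came from a phage panning campaign against this peptide. AAYL51 was designed without a model: most single CDR substitutions and a random sample of double and triple ones. Affinity was read by AlphaSeq, a pooled yeast mating assay with surface-displayed partners. Mating (16 h, 30 °C) was followed by selection of diploids and sequencing of their barcodes. Read counts were normalised to the haploid input and turned into Kd by a linear fit to BCL2-family pairs of known affinity, for each replicate. Mating was done three times.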

Changes read parent residue, position, new residue, counted from the first residue of the VH shown.
Numbers give log10(Kd / nM), so 0 is 1 nM and 3 is 1 µM. Smaller is tighter.
Averages over replicates are reported, and they cover detected replicates only.
"ND" marks a missing value. The strain was present, yet no cells mated with the target were sequenced in that replicate, which points to weak or no binding.
Three control strains display no target. For library AAYL51, 21% of the pairings with them gave a signal, with a median of 4.54 and one signal in twenty below 3.26, so weak values seen in few replicates may be background. Also given: how often the same scFv was detected with the empty control strains.
In this assay the parent's reference entry averaged 1.86; its copy inside this library read 0.88.

For T28V+M34W+N54F, the assay gave 3.25, ND, ND (controls 1 of 9).
For I58C+Y105Q, the assay gave 1.97, 1.88, ND (mean 1.92; controls 0 of 9).
For D30I+S57K+D62Q, the assay gave 4.27, 4.34, ND (mean 4.31; controls 3 of 9).
For T28R+G50Q+G103V, the assay gave 4.33, ND, 3.67 (mean 4.00; controls 2 of 9).
For D31Q+N54S+Y105T, the assay gave 1.20, 1.23, 0.97 (mean 1.13; controls 1 of 9).
For F29M+G59F+Y108F, the assay gave 5.09, 4.75, ND (mean 4.92; controls 2 of 9).
For G56V+S57G+V64F, the assay gave ND, ND, ND (controls 5 of 9).
For V64D+G100L, the assay gave ND, ND, ND (controls 1 of 9).
For W53V+G100V+R101K, the assay gave 1.45, 2.04, 1.26 (mean 1.58; controls 2 of 9).
For D30W+D31I+V64L, the assay gave 2.50, ND, ND (controls 0 of 9).
For D30G+A61G+V64C, the assay gave 2.97, 2.96, 2.80 (mean 2.91; controls 6 of 9).
For S52G, the assay gave 2.55, 2.86, 2.75 (mean 2.72; controls 3 of 9).
For G26S+I51L+W53T, the assay gave ND, ND, ND (controls 1 of 9).
For I58Q+A61P+V99K, the assay gave ND, ND, ND (controls 0 of 9).
For T28E+N54W+G103N, the assay gave ND, 6.13, ND (controls 4 of 9).
For F29K+W53I+V99M, the assay gave ND, ND, ND (controls 1 of 9).
For G50W+S63A+K65E, the assay gave ND, ND, ND (controls 1 of 9).
For N54A, the assay gave 3.17, 3.79, 3.64 (mean 3.54; controls 4 of 9).
For D31Q+G56E+Y60Q, the assay gave 1.36, 1.03, 0.67 (mean 1.02; controls 3 of 9).
For H35L+R101V, the assay gave ND, ND, ND (controls 2 of 9).
For D107T, the assay gave 4.90, ND, ND (controls 2 of 9).
For Y105I, the assay gave 2.83, 2.88, 2.80 (mean 2.83; controls 1 of 9).
For F27V+V64C+Y105W, the assay gave ND, ND, ND (controls 2 of 9).
For F27D+N54A+Y105F, the assay gave ND, ND, ND (controls 0 of 9).
For I51G+A61G+G100Y, the assay gave 5.30, ND, ND (controls 3 of 9).
For T28M+Y108P, the assay gave 2.31, 2.21, 1.91 (mean 2.14; controls 5 of 9).
For I51S+G102S+D107G, the assay gave 4.52, ND, 5.62 (mean 5.07; controls 5 of 9).
For G26L+D30G+H35I, the assay gave ND, 5.32, ND (controls 3 of 9).
For G50T+Y60M+G104D, the assay gave ND, 4.67, 4.54 (mean 4.60; controls 3 of 9).
For R101S+G103C, the assay gave ND, ND, 3.81 (controls 0 of 9).
For S63E+V99T, the assay gave 3.47, ND, ND (controls 0 of 9).
For D30P+Y32V+A33I, the assay gave ND, ND, ND (controls 0 of 9).
For S57E+G103R+G104Y, the assay gave ND, ND, 3.89 (controls 2 of 9).
For I51C+Y60K+G103K, the assay gave ND, ND, ND (controls 0 of 9).
For T28H+Y108A, the assay gave 0.61, 0.67, 0.03 (mean 0.44; controls 6 of 9).
For Y32T+G50W+G56P, the assay gave 4.68, ND, 4.63 (mean 4.65; controls 3 of 9).
For M34D+G50P+R101A, the assay gave 4.59, 6.32, ND (mean 5.46; controls 5 of 9).
For G59Y+A61P+R101V, the assay gave 4.38, 4.43, 4.19 (mean 4.33; controls 5 of 9).
For A33S+A61S+G104R, the assay gave 5.09, ND, ND (controls 1 of 9).
For D30Y+Y60C, the assay gave 2.92, 3.09, 3.35 (mean 3.12; controls 3 of 9).
For I58K+G59E+Y60K, the assay gave 3.60, ND, ND (controls 0 of 9).
For N54D+G56H+V64N, the assay gave ND, ND, ND (controls 1 of 9).
For T28F+F29H+Y105N, the assay gave 4.31, ND, ND (controls 4 of 9).
For I58A+G100F+Y108E, the assay gave ND, 4.57, 5.12 (mean 4.85; controls 5 of 9).
For D31L+Y105P, the assay gave ND, ND, ND (controls 2 of 9).
For Y60F+G103K+F106V, the assay gave 3.41, 3.95, ND (mean 3.68; controls 1 of 9).
For S55A+S63T+Y105D, the assay gave 4.64, ND, ND (controls 0 of 9).
For F29C+G100F, the assay gave ND, ND, ND (controls 0 of 9).

Top 6 of the variants detected in all replicates, tightest first:

| changes | log10 Kd, replicates | mean, log10 nM | signal with controls |
|---|---|---|---|
| T28H+Y108A | 0.61, 0.67, 0.03 | 0.44 | 6 of 9 |
| D31Q+G56E+Y60Q | 1.36, 1.03, 0.67 | 1.02 | 3 of 9 |
| D31Q+N54S+Y105T | 1.20, 1.23, 0.97 | 1.13 | 1 of 9 |
| W53V+G100V+R101K | 1.45, 2.04, 1.26 | 1.58 | 2 of 9 |
| T28M+Y108P | 2.31, 2.21, 1.91 | 2.14 | 5 of 9 |
| S52G | 2.55, 2.86, 2.75 | 2.72 | 3 of 9 |

Reference: Engelhart et al. 2022, doi:10.1038/s41597-022-01779-4. File: FLAb, binding data.